In BindingDB's records for doi:10.1021/jm9508853 (University of Maryland, 2021) one finds IC50 data, which are given here for 1 compound.

This test deals with B-cell lymphoma 6 protein (Homo sapiens, UniProt P41182). Nature of the test: Inhibition of human BCL6 BTP domain measured by TR-FRET assay.

One may read the IC50 as the concentration that gives 50% inhibition. In the case of `Cn1c(=O)n(C)c2cc(Nc3ccnc(Cl)c3C#N)ccc21`, the IC50 turned out to be 3.4 µM.
